ChEMBL document CHEMBL5584275, “Design, Synthesis, and Evaluation of a New Chemotype Fluorescent Ligand for the P2Y2 Receptor” (ACS Med Chem Lett, 2024)
Calls of active or inactive are those of the source. The calls are words filed in the database; no cut-off is given here.

Sequences of proteins named here, by UniProt entry; tags and fusion partners are left off. A change or cut given only in a name is not applied to a line headed by its entry.
UniProt P41231: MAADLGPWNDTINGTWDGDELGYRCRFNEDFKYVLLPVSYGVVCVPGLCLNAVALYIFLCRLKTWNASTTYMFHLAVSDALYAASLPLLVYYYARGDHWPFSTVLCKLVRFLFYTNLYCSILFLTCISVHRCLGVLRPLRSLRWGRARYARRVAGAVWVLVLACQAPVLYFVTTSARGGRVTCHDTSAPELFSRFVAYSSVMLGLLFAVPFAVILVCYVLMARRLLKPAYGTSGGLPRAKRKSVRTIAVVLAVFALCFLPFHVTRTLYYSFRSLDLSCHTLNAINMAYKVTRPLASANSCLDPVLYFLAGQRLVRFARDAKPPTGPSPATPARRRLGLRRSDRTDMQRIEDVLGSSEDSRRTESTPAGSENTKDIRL
UniProt P61073, whole entry: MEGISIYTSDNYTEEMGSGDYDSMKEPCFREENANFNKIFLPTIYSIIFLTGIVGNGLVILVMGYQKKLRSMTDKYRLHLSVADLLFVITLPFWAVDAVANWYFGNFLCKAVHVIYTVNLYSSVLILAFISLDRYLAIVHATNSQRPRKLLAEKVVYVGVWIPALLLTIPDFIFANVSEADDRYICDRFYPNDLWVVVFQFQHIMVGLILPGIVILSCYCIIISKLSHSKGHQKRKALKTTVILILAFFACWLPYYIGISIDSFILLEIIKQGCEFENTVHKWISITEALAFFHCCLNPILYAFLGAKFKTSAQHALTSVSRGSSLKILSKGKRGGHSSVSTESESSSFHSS

How the values were obtained:
Assay type in all cases: cell membranes
P2Y purinoceptor 2 [1] = biological target: T1, P2Y purinoceptor 2 (Homo sapiens, UniProt P41231); assay: Binding affinity to NanoLuc-fused P2Y2R (unknown origin) extracted from 1321N1 cell membrane incubated for 1 hr in presence of 7-((5-(bis(4-chlorophenyl)methyl)thiazol-2-yl)amino)heptanoic acid by NanoBRET assay
P2Y purinoceptor 2 [2] = biological target: T1, P2Y purinoceptor 2; assay: Competitive binding affinity to NLuc fused P2Y2R (unknown origin) extracted from 1321N1 cell membrane assessed as inhibition of BRET signal at 1 mM incubated for 1 hr in presence of 2-((5-(7-chloro-2-((3-((2-(5-(3-(5,5-difluoro-7,9-dimethyl-5H-4lambda4,5lambda4-dipyrrolo[1,2-c:2',1'-f][1,3,2]diazabo …; set-up: scale not given: the % may be the effect or the level left
[3] = biological target: C-X-C chemokine receptor type 4 (Homo sapiens) (UniProt P61073); assay: Binding affinity to NLuc-tagged CXCR4 (unknown origin) extracted from HEK293 cell membrane incubated for 1 hr in presence of 7-((5-(bis(4-chlorophenyl)methyl)thiazol-2-yl)amino)heptanoic acid by NanoBRET assay

O=C(COc1ccc(/C=C/C2=[N+]3C(=Cc4ccc(-c5cccs5)n4[B-]3(F)F)C=C2)cc1)NCCCCCC(=O)N[C@@H](CCNc1ncc(C(c2ccc(Cl)cc2)c2ccc(Cl)cc2)s1)C(=O)O
Activity (P2Y purinoceptor 2 [1]): Active

Cc1cc(C)n2c1C=C1C=CC(CCC(=O)NCCCCCC(=O)N[C@@H](CCCNc3ncc(C(c4ccc(Cl)cc4)c4ccc(Cl)cc4)s3)C(=O)O)=[N+]1[B-]2(F)F
Activity (P2Y purinoceptor 2 [1]): Active

CCOCCNc1ncc(C(c2ccc(Cl)cc2)c2ccc(Cl)cc2)s1
Activity (P2Y purinoceptor 2 [2]): 44%

Cc1cc(C)n2c1C=C1C=CC(CCC(=O)NCCCCCC(=O)N[C@@H](CCNc3ncc(C(c4ccc(Cl)cc4)c4ccc(Cl)cc4)s3)C(=O)O)=[N+]1[B-]2(F)F
Activity (P2Y purinoceptor 2 [1]): Active

O=C(COc1ccc(/C=C/C2=[N+]3C(=Cc4ccc(-c5cccs5)n4[B-]3(F)F)C=C2)cc1)NCCCCCC(=O)N[C@@H](CCCNc1ncc(C(c2ccc(Cl)cc2)c2ccc(Cl)cc2)s1)C(=O)O
Activity [3]: inactive | Activity (P2Y purinoceptor 2 [1]): Active

CN(C)c1ccc2c(-c3ccc(C(=O)N[C@@H](CCNc4ncc(C(c5ccc(Cl)cc5)c5ccc(Cl)cc5)s4)C(=O)O)cc3C(=O)[O-])c3ccc(=[N+](C)C)cc-3oc2c1
Activity (P2Y purinoceptor 2 [1]): Active

CN(C)c1ccc2c(-c3ccc(C(=O)N[C@@H](CCCNc4ncc(C(c5ccc(Cl)cc5)c5ccc(Cl)cc5)s4)C(=O)O)cc3C(=O)[O-])c3ccc(=[N+](C)C)cc-3oc2c1
Activity (P2Y purinoceptor 2 [1]): Active
